Reference: patent US20060030585A1, “Tricyclic delta-opioid modulators” (priority 2004, published 2006)

Chains of the proteins cited; added tags and fusions are not shown.
UniProt P33533, whole entry: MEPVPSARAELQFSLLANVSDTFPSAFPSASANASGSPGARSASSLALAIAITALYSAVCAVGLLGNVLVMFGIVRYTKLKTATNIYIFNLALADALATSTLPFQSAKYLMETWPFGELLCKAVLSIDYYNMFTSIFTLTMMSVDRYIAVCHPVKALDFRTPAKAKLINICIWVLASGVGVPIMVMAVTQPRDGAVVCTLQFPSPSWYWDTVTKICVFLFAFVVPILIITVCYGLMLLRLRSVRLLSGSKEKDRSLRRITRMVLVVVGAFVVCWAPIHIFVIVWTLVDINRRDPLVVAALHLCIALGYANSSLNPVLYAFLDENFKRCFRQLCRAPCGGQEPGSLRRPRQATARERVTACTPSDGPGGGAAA
UniProt P33535, whole entry: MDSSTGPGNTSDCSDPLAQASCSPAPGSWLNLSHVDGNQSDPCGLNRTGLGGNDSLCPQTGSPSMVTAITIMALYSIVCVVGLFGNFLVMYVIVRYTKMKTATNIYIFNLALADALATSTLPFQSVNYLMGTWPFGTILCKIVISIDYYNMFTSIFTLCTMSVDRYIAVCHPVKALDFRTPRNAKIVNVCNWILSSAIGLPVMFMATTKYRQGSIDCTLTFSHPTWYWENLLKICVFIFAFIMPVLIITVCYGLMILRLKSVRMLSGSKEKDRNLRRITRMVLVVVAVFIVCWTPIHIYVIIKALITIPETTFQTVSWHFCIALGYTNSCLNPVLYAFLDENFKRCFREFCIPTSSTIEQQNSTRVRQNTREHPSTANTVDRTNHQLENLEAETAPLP

Tests used:
[1] = target: delta opioid receptor (Rattus norvegicus, UniProt P33533); test: Rat brain delta opioid receptor binding assay ([3H]DPDPE); conditions: read-out: DOR Ki; Rat delta opioid receptor binding constant; rat forebrain membranes, ~4 nM [3H]DPDPE
Protocol: Rat Brain Delta Opioid Receptor Binding Assay
Procedure: Male, Sprague Dawley rats (150-250 g, VAF, Charles River, Kingston, N.Y.) were killed by CO2, and their brains removed and placed immediately in ice cold Tris HCl buffer (50 mM, pH 7.4). The forebrains were separated from the remainder of the brain by a coronal transection, beginning dorsally at the colliculi and passing ventrally through the midbrain-pontine junction. After dissection, the forebrains were homogenized in Tris buffer in a Teflon®-glass homogenizer. The homogenate was diluted to a concentration of 1 g of forebrain tissue per 80 mL Tris and centrifuged at 39,000×g for 10 min. The pellet was resuspended in the same volume of Tris buffer containing 5 mM MgCl2 with several brief pulses from a Polytron homogenizer. […] To each sample area 2×50 μL of Betaplate Scint scintillation fluid (LKB) was added and the radioactivity quantified on a LKB (Wallac) 1205 BetaPlate liquid scintillation counter.
Analysis: The data from the scintillation counter were used to calculate either the % inhibition compared to control binding (when only a single concentration of test compound was evaluated) or a Ki value (when a range of concentrations was tested). Percent inhibition was calculated as: [(total dpm-test compound dpm)/(total dpm-nonspecific dpm)]*100. Kd and Ki values were calculated using GraphPad PRISM data analysis program.

[2] = target: mu opioid receptor (Rattus norvegicus, UniProt P33535); test: Rat brain mu opioid receptor binding assay ([3H]DAMGO); conditions: read-out: MOR Ki; Rat mu opioid receptor binding constant; rat forebrain membranes, ~0.8 nM [3H]DAMGO

Work on CN(CCO)C(=O)c1ccc2c(c1)Oc1ccccc1C2=C1CC2CCC(C1)N2C(=O)OC(C)(C)C yielded a Ki [1] greater than 10 µM and a Ki [2] greater than 10 µM.
